# Experimental data reported in paper PMC13070491, “Single-nucleus transcriptomics, pharmacokinetics, and pharmacodynamics of CDK4/6 and mTOR inhibition in a Phase 0/1 trial of recurrent high-grade glioma” (Neuro-Oncology, 2025).
# System: GB126, GB239 and GB86 patient-derived cell lines
# Test: In vitro single-cell RNA sequencing, analyses across the cell lines (pseudobulk differential gene expression, GSEA, non-cycling cells)
# Assay type: cell-based, human
# Experimental: Patient-derived glioma stem cell lines (GSCs; GB126, GB86, and GB239) were established from resected GBM tumor tissue. Cell lines were genetically profiled for mutations and copy number aberrations using the IvySeq custom gene panel. […] GB239 was derived from a tumor sample included in this Phase 0 trial (tumor sample: 100-0039). All human GSCs were cultured as described previously.[12]
# Following the fifth day of drug exposure, cells were harvested, cryopreserved to be processed at a later point, or immediately processed for single-cell RNA sequencing (10x Genomics, 3’ version 3). The single-cell RNA sequencing data were then processed via cellranger count and Seurat. Briefly, cells were filtered out based on the following criteria: minimum number of genes detected >500 and <10 000 with a maximum percentage of mitochondrial genes set to 10%. Statistical assessment was made between the malignant proportions of each cell state using a 2-sided paired t-test.
# Descriptive statistics of the clinical data are included in Table 1. Comparisons between groups were conducted using a 2-sided or paired 2-sided t-test, where indicated. P < .05 was considered significant. Multiple hypothesis test corrections (ie, false discovery rate correction) were applied for snRNAseq pseudobulk differential expression analysis.
# [1] = ribociclib versus control (DMSO)
smiles,measurement,setting,value
CN(C)C(=O)c1cc2cnc(Nc3ccc(N4CCNCC4)cn3)nc2n1C1CCCC1 [ribo],log2FoldChange,"feature ABCB11, ribociclib versus control (DMSO)",1.044
same,log2FoldChange,"feature AC003659.1, ribociclib versus control (DMSO)",1.0757
same,log2FoldChange,"feature AC007391.3, ribociclib versus control (DMSO)",1.025
same,log2FoldChange,"feature AC008551.1, ribociclib versus control (DMSO)",1.025
same,log2FoldChange,"feature AC009975.1, ribociclib versus control (DMSO)",1.119
same,log2FoldChange,"feature AC016642.1, ribociclib versus control (DMSO)",1.119
same,log2FoldChange,"feature AC018643.1, ribociclib versus control (DMSO)",1.076
same,log2FoldChange,"feature AC022431.1, ribociclib versus control (DMSO)",1.234
same,log2FoldChange,"feature AC093879.1, ribociclib versus control (DMSO)",1.0437
same,log2FoldChange,"feature AC093912.1, ribociclib versus control (DMSO)",1.217
same,log2FoldChange,"feature AC108053.1, ribociclib versus control (DMSO)",1.175
same,log2FoldChange,"feature ADH6, ribociclib versus control (DMSO)",1.0252
same,log2FoldChange,"feature AF127577.3, ribociclib versus control (DMSO)",1.0263
same,log2FoldChange,"feature AL121894.1, ribociclib versus control (DMSO)",1.234
same,log2FoldChange,"feature BCO1, ribociclib versus control (DMSO)",1.0253
same,log2FoldChange,"feature BOLL, ribociclib versus control (DMSO)",1.119
same,log2FoldChange,"feature CCDC26, ribociclib versus control (DMSO)",1.101
same,log2FoldChange,"feature CPA4, ribociclib versus control (DMSO)",1.025
same,log2FoldChange,"feature CPB1, ribociclib versus control (DMSO)",1.315
same,log2FoldChange,"feature GGT5, ribociclib versus control (DMSO)",1.119
same,log2FoldChange,"feature HP, ribociclib versus control (DMSO)",1.025
same,log2FoldChange,"feature IGFBP7-AS1, ribociclib versus control (DMSO)",1.026
same,log2FoldChange,"feature IKBKE, ribociclib versus control (DMSO)",1.228
same,log2FoldChange,"feature LINC00545, ribociclib versus control (DMSO)",1.097
same,log2FoldChange,"feature LINC02574, ribociclib versus control (DMSO)",1.315
same,log2FoldChange,"feature MCTP2, ribociclib versus control (DMSO)",1.101
same,log2FoldChange,"feature NAALADL2-AS3, ribociclib versus control (DMSO)",1.138
same,log2FoldChange,"feature PCDHB8, ribociclib versus control (DMSO)",1.026
same,log2FoldChange,"feature POU5F1B, ribociclib versus control (DMSO)",1.1812
same,log2FoldChange,"feature S100B, ribociclib versus control (DMSO)",1.035
same,log2FoldChange,"feature SLC22A1, ribociclib versus control (DMSO)",1.1427
same,log2FoldChange,"feature SLC25A34-AS1, ribociclib versus control (DMSO)",1.035
same,log2FoldChange,"feature TNFSF4, ribociclib versus control (DMSO)",1.076
same,log2FoldChange,"feature TNN, ribociclib versus control (DMSO)",1.048
same,log2FoldChange AC007728.2,"gene AC007728.2, ribociclib versus control (DMSO)",1.44
same,log2FoldChange,"gene AC011498.3, ribociclib versus control (DMSO)",-1.005
same,log2FoldChange,"gene AC012213.1, ribociclib versus control (DMSO)",-1.2171
same,log2FoldChange AC018616.1,"gene AC018616.1, ribociclib versus control (DMSO)",2.252
same,log2FoldChange,"gene AC233280.1, ribociclib versus control (DMSO)",-1.005
same,log2FoldChange,"gene ADH4, ribociclib versus control (DMSO)",1.005
same,log2FoldChange,"gene AL359399.1, ribociclib versus control (DMSO)",-1.234
same,log2FoldChange,"gene ATAD5, ribociclib versus control (DMSO)",-1.025
same,log2FoldChange,"gene BARD1, ribociclib versus control (DMSO)",-1.097
same,log2FoldChange CASC9,"gene CASC9, ribociclib versus control (DMSO)",1.37
same,log2FoldChange,"gene CBX2, ribociclib versus control (DMSO)",-1.025
same,log2FoldChange,"gene CENPN, ribociclib versus control (DMSO)",-1.657
same,log2FoldChange,"gene CIP2A, ribociclib versus control (DMSO)",-1.217
same,log2FoldChange,"gene DTYMK, ribociclib versus control (DMSO)",-1.076
same,log2FoldChange,"gene EBF2, ribociclib versus control (DMSO)",-1.005
same,log2FoldChange,"gene FBXO43, ribociclib versus control (DMSO)",-1.217
same,log2FoldChange FSIP2-AS2,"gene FSIP2-AS2, ribociclib versus control (DMSO)",1.502
same,log2FoldChange,"gene HIST1H2BJ, ribociclib versus control (DMSO)",-1.005
same,log2FoldChange,"gene HIST1H4E, ribociclib versus control (DMSO)",-1.005
same,log2FoldChange LINC01478,"gene LINC01478, ribociclib versus control (DMSO)",1.617
same,log2FoldChange LINC02149,"gene LINC02149, ribociclib versus control (DMSO)",1.376
same,log2FoldChange,"gene MCIDAS, ribociclib versus control (DMSO)",-1.37
same,log2FoldChange,"gene PCDH9-AS4, ribociclib versus control (DMSO)",1.005
same,log2FoldChange,"gene RANBP1, ribociclib versus control (DMSO)",-1.143
same,log2FoldChange,"gene S100A16, ribociclib versus control (DMSO)",1.005
same,log2FoldChange,"gene SCARA3, ribociclib versus control (DMSO)",-1.377
same,log2FoldChange,"gene SCG5, ribociclib versus control (DMSO)",-1.1193
same,log2FoldChange SH3RF3-AS1,"gene SH3RF3-AS1, ribociclib versus control (DMSO)",1.502
same,log2FoldChange,"gene SLC9A9-AS1, ribociclib versus control (DMSO)",1.001
same,log2FoldChange,"gene TUBB, ribociclib versus control (DMSO)",-1.076
same,log2FoldChange Z85996.2,"gene Z85996.2, ribociclib versus control (DMSO)",1.718
same,log2FoldChange,"gene Z93241.1, ribociclib versus control (DMSO)",-1.0046
same,"log2FoldChange, feature CENPA",[1],-1.993
same,"log2FoldChange, feature CLSPN",[1],-2.2433
same,"log2FoldChange, feature HIST1H1T",[1],-3.682
same,"log2FoldChange, feature NUF2",[1],-2.374
same,"log2FoldChange, feature SKA3",[1],-2.852
